# Measurements: ChEMBL document CHEMBL5365446, “Discovery, Structure-Activity Relationships, and In Vivo Activity of Dihydropyridone Agonists of the Bile Acid Receptor TGR5” (J Med Chem, 2023)
# Biological target: T1, G-protein coupled bile acid receptor 1 (Mus musculus) (UniProt Q80SS6)
# T1 sequence (whole entry): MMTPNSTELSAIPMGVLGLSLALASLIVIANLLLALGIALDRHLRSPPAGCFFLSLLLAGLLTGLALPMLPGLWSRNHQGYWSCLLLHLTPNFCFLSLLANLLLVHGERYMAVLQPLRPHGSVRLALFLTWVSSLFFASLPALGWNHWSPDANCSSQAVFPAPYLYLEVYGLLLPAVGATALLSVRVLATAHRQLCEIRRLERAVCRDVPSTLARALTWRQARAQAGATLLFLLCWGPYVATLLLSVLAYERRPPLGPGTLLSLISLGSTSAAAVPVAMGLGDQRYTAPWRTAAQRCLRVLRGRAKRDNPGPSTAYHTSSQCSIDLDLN
# Experiment: Ex vivo agonist activity at TGR5 in mouse colonoids assessed as increase in GLP-1 secretion incubated for 2 hrs by ELISA method
# Type: functional, tissue-based
# Conditions: Colon organoid, dose <= 50.0 µM
compound,measurement,value
COc1ccccc1COC(=O)C1=C(C)N(C[C@H]2CCCO2)C(=O)C[C@H]1c1ccc(Cl)nc1,Activity,Dose-Dependent Effect
